Data published in US10815276B2, “Cell penetrating peptides and methods of making and using thereof” (Entrada Therapeutics, Inc., priority 2014, dated 2020).

Target: T1, PTP1B (Homo sapiens, UniProt P18031)
T1 construct: The gene coding for the catalytic domain of PTP1B (amino acids 1-321) was amplified; made in house; host or cells: prokaryotic vector pET-22b(+)-ybbR
T1 sequence (P18031 1-321): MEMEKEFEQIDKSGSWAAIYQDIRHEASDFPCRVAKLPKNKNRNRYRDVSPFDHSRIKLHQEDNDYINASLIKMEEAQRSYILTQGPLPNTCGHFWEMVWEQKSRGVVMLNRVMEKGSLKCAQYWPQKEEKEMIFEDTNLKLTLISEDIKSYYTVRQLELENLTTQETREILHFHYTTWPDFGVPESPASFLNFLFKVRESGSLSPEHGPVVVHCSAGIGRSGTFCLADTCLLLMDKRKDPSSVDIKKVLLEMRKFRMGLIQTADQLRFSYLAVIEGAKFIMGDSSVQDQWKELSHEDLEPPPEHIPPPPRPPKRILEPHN
Assay: PTP inhibition assay (pNPP)
Format: biochemical
Conditions: monocyclic peptide inhibitors
Method: PTP assays were performed in a quartz microcuvette (total volume 150 μL). The reaction mixture contains 100 mM Tris-HCl, pH 7.4, 50 mM NaCl, 2 mM EDTA, 1 mM TCEP, 0-1 μM of PTP inhibitor, and 500 μM para-nitrophenyl phosphate (pNPP). The enzymatic reaction was initiated by the addition of PTP (final concentration 15-75 nM) and monitored continuously at 405 nm on a UV-VIS spectrophotometer. Initial rates were calculated from the reaction progress curves (typically <60 s). The half-maximal inhibition constant (IC50) was defined as the concentration of an inhibitor that reduced the enzyme activity to 50% and was obtained by plotting the rates (V) against the inhibitor concentration [I] and fitting the data against the equation
[formula] where V0 is the enzymatic reaction rate in the absence of inhibitor. […] The reaction rate (V) was plotted against the pNPP concentration ([S]) and fitted against the equation
[formula] to obtain the Michaelis constant K. The Ki value was obtained by plotting the K values against the inhibitor concentration [I] and fitted to equation
[formula] where K0 is the Michaelis constant in the absence of inhibitor ([I]=0).

Substance: cyclo(Ile-Pro-Phg-F2Pmp-Nle-Arg-Arg-Arg-Arg-Nal-Phe-Gln) [Monocyclic Inhibitor 3]
- IC50: ~200 nM
